{"source": "patent US20160237160A1", "about": "“ANTI-TWEAKR ANTIBODIES AND USES THEREOF” (BAYER PHARMA AKTIENGESELLSCHAFT, priority 2013, published 2016)", "key": {"[1]": {"system": "Co5676 patient-derived colorectal cancer model", "experiment": "Xenograft anti-tumor efficacy", "assay_type": "in vivo, mice", "settings": "tumor area, TPP-2090 10 mg/kg twice weekly for 4 weeks", "method": "(§1) After tumor growth to a size of approximately 40 mm^2 mice were randomized into control and treatment groups with a respective group size of n=8-10. Mice were treated with various doses of anti-TWEAKR antibodies diluted in PBS by intravenous injection (i.v.) into the tail vein with a twice per week schedule (q4dx3: applications twice per week, three applications in total; q4dx8: applications twice per week, eight applications in total). Combination therapy partners such as Regorafenib (10 mg/kg daily, per os) and the PI3K-inhibitor 1 (10 mg/kg, BID, 2d on, 5d off (applications twice daily on two consecutive days, followed by five days without treatment), i.v.) were diluted in their respective formulations whereas the standard of care therapies Irinotecan (5 mg/kg, 4d on, 3d off (applications once daily on four consecutive days followed by three days without treatment) i.v.) and Paclitaxel (16 mg/kg, q7dx4 (applications once per week, four applications in total), i.v.) were diluted in 0.9% NaCl. Animals injected with PBS served as the control (vehicle) group. The applied volume of the compounds was 5 ml/kg body weight per mouse.\n(§2) Tumor growth was monitored 2-3 times per week by caliper measurement (length×width in mm) as well as body weight (in g). […]"}, "[2]": {"system": "CXF533 patient-derived colorectal cancer model", "experiment": "Xenograft anti-tumor efficacy", "assay_type": "in vivo, mice", "settings": "tumor weight, TPP-2090 10 mg/kg twice weekly for 4 weeks", "method": "as §1, §2"}}}
{"substance": "Cetuximab: standard of care antibody, EGFR (HER1) inhibitor", "values": [{"measurement": "Final T/C", "setting": "[1]", "value": 0.22}, {"measurement": "Final T/C", "setting": "[2]", "value": 1.53}]}
